Source: ChEMBL document CHEMBL1125620, “Synthesis and biological evaluation of a series of substituted N-alkoxyimides and -amides as potential atypical antipsychotic agents” (J Med Chem, 1991)

Sequences of proteins named here, by UniProt entry; tags and fusion partners are left off.
UniProt P19327, whole entry: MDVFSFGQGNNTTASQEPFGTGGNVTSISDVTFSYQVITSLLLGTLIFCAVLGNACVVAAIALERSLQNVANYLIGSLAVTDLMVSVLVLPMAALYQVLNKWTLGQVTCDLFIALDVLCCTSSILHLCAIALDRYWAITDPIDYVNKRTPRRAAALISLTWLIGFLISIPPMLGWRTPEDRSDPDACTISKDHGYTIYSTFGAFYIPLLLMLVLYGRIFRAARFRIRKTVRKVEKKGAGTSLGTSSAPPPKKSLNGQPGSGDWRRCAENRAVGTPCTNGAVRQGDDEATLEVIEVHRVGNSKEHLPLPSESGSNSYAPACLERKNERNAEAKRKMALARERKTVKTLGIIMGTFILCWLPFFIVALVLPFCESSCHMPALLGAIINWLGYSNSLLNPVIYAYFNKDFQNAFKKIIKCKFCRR

Target: 5-hydroxytryptamine receptor 1A (Rattus norvegicus, UniProt P19327)
Assay: Affinity for 5-hydroxytryptamine 1A receptor labeled with [3H]8-OH-DPAT radioligand in hippocampus tissue
Format: tissue-based

IC50: 18 nM
Compound: O=C1CC2(CCCC2)CC(=O)N1CCCCN1CCN(c2nsc3ccccc23)CC1 [TIOSPIRONE]
